Tests used:
[1] = Selectivity ratio of IC50 for human recombinant DHFR to IC50 for Pneumocystis jirovecii recombinant DHFR
[2] = Selectivity ratio of IC50 for rat liver DHFR to IC50 for Pneumocystis carinii DHFR
[3] = Selectivity ratio of IC50 for rat liver DHFR to IC50 for Mycobacterium avium DHFR

CN(c1cc(F)c(F)c(F)c1)c1cnc2nc(N)nc(N)c2c1
Ratio IC50 [1]: 35 | Ratio IC50 [2]: 1.9 | Ratio IC50 [3]: 15
